The text below walks through data of patent US6683107B2, “Furans, benzofurans, and thiophenes useful in the treatment of insulin resistance and hyperglycemia” (Wyeth, priority 1998, dated 2004).

Sequences of proteins named here, by UniProt entry; tags and fusion partners are left off. A change or cut given only in a name is not applied to a line headed by its entry.
UniProt P18031: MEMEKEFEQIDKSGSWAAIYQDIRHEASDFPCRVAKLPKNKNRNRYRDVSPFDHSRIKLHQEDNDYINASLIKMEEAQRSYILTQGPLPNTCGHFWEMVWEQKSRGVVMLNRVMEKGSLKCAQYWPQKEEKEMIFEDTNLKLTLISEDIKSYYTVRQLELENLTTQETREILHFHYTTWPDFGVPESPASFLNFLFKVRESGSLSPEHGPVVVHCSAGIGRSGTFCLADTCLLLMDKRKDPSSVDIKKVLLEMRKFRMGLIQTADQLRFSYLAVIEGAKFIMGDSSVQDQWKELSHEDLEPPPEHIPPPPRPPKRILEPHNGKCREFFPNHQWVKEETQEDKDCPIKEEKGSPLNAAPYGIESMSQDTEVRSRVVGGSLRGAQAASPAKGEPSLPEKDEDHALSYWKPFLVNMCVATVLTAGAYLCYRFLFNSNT

In the experiment the target is human recombinant PTP1B (hPTP1B) (Homo sapiens, UniProt P18031). As to the kind of experiment: Inhibition of tri-phosphorylated insulin receptor dodecaphosphopeptide dephosphorylation by hPTP1B (malachite green phosphate detection). In kind it is biochemical. As to conditions: insulin receptor 1142-1153 triphosphopeptide substrate, 37° C., 30 min, pH 7.4.

As a reminder, the IC50 is the concentration that inhibits the measured activity by half. Phenylarsine oxide: the half-maximal inhibitory concentration (IC50) is 39.7 µM.
